Reference: ChEMBL document CHEMBL4414598, “Trifluorinated Pyrimidine-Based A2B Antagonists: Optimization and Evidence of Stereospecific Recognition” (J Med Chem, 2019)

Molecular target: T1, Adenosine receptor A2b (Homo sapiens) (UniProt P29275)
T1 sequence (whole entry): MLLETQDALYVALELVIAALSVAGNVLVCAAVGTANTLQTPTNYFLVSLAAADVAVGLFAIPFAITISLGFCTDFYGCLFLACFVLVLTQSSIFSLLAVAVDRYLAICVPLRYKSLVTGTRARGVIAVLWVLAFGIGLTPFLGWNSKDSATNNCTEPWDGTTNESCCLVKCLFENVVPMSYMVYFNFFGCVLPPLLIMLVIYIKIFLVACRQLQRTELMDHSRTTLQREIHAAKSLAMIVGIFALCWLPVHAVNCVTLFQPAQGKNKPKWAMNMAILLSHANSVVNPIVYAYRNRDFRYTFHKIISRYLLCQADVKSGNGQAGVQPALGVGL
Assay: Antagonist activity at human recombinant A2B receptor expressed in human HEK293 cells assessed as inhibition of NECA-stimulated cAMP production pre-incubated for 15 mins before NECA stimulation for 15 mins by cAMP enzyme immunoassay
Assay type: functional, cell-based

| SMILES | Kb |
| --- | --- |
| CC1=C(C(=O)OCC(F)(F)F)C(c2ccco2)n2c(nc3ccccc32)N1 (racemic) | 83.2 nM |
| CCOC(=O)C1=C(C(F)(F)F)Nc2nc3ccccc3n2C1c1ccoc1 (racemic) | 79.4 nM |
| CC1=C(C(=O)OC(C)C(F)(F)F)C(c2ccco2)n2c(nc3ccccc32)N1 (racemic) | 106 nM |
